Protein sequences, listed by entry. Tags and fused reporters are not part of them.
Importin subunit beta-1 (Homo sapiens), Q14974, UniProt Q14974, whole entry, looked up: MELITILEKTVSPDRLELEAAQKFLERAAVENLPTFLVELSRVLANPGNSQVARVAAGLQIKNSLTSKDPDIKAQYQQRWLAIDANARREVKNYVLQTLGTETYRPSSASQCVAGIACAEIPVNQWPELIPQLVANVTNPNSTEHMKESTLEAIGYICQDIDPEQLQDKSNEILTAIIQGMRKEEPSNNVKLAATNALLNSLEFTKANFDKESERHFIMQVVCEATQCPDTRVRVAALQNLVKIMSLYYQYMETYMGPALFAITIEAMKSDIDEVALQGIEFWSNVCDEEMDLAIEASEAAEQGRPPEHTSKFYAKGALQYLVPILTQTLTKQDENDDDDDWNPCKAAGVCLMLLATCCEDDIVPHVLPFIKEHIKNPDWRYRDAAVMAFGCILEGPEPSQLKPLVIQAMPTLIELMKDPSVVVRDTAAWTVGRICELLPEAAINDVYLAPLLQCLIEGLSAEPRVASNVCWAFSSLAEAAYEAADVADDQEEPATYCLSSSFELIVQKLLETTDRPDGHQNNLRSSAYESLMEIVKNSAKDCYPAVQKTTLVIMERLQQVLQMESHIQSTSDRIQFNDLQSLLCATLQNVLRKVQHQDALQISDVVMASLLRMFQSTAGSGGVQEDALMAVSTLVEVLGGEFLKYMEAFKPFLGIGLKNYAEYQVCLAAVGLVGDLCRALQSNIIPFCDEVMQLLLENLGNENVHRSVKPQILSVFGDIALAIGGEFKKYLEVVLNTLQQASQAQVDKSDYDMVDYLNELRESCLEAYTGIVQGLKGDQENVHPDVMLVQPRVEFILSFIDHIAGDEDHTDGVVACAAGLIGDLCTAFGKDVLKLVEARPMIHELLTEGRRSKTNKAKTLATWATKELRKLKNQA

# Screening results as filed in PubChem BioAssay.
# Rango release inh = qHTS Assay for Inhibitors of RanGTP induced Rango (Ran-regulated importin-beta cargo) - Importin beta complex dissociation; hit rate 0.071% among 340,000; Snurportin-1 (Homo sapiens) + GTP-binding nuclear protein Ran (Homo sapiens) + Importin …; Potency, µM (doses to about 46.1 µM), without a hit: at the top dose activity change, negative = inhibition; Biochemical FRET Rango-importin beta, RanGTP-induced dissociation; note: potency is the fitted concentration of half-maximal effect; % of control where 0% means no effect; nearly all actives have a fitted effect of over 45% in size
#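 Recombinant Rango FRET biosensor (EYFP–snurportin 1 IBB–cerulean CFP10) at 0.1 uM premixed with 0.25 uM importin beta in PBS, 1 mM DTT, 0.02% Tween-20, 0.1% BSA. Compound added 5 min; RanGTP-RCC1 (0.6 uM Ran, 2 mM GTP, 0.2 uM RCC1) then triggers release, read at 45 min.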
# Rango complex inh = qHTS Assay for Inhibitors of Rango (Ran-regulated importin-beta cargo) - Importin beta complex formation; Importin subunit beta-1 (Homo sapiens), Q14974; Rango CFP/YFP FRET sensor + importin beta, 45 min; Potency, µM (doses to about 92.2 µM), for the others: at the top dose inhibition of complex formation; hit rate 0.031% among 340,000; AID 540263, 2011;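 note: potency is the fitted concentration of half-maximal effect; 0% = DMSO wells and 100% = buffer wells lacking importin beta; nearly all actives have a fitted effect of over 15% in size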
#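 Inhibition scored from the CFP 486 nm/YFP 530 nm FRET ratio 45 min after adding 0.125 microM importin beta to 50 nM Rango biosensor preincubated 5 min with compound (room temperature, PBS with DTT, Tween-20, BSA). No-importin wells as positive control.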
# KCNH2 3.1 block = qHTS for Inhibitors of KCHN2 3.1: Mutant qHTS; U2OS KCNH2 3.1, thallium flux FluxOr; stronger effect = lower value; activity change, % (tested at about 1.8 µM); hit rate 0.95% among 340,000; AID 720553, 2013;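 active = maximum activity change below -70%; inconclusive = maximum activity change from -70% to -50%; inactive = maximum activity change above -50%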;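 note: thallium influx rate constant from kinetic fluorescence after stimulation buffer; % is set by controls: 0 for no effect and ±100 for the full control effect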
#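 Kinetic fluorescence (2 min after stimulation buffer) measures Tl+ influx through KCNH2 3.1 expressed by viral transduction in U2OS cells; the rate constant is normalized against DMSO controls serving as positive and negative references.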
# Mm-Cpn inhibitor = Inhibitors of TCP-1 ring complex (TRiC) of Methanococcus maripaludis (MmCpn): qHTS | Potency, µM (top dose mostly 76.9 µM), inactives show at the top dose activity, negative = inhibition, hits mostly inhibitors | purified Mm-Cpn ATPase, ADP Transcreener TR-FRET | AID 504842, 2011 | hit rate 0.031% among 330,000; active = well fitted inhibition curve with a large enough effect; inconclusive = small, poorly fitted or top-dose-only effect; note: potency is the fitted concentration of half-maximal effect; % is set by controls: 0 for no effect and ±100 for the full control effect; nearly all actives have a fitted effect of over 80% in size
#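 Quantitative HTS used 25 nM Mm-CPN and 10 uM ATP in magnesium/KCl Tris buffer, pH 7.4, with 1 mM DTT. Hydrolysis ran 30 min at 37°C; ADP was read by HTRF.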
# KCNH2 WT inh = qHTS for Inhibitors of KCHN2 3.1: Wildtype qHTS. activity change, % at 1.84 µM. U2OS, BacMam KCNH2, thallium flux FluxOr; stronger effect = lower value. hit rate 0.37% among 340,000. AID 720551, 2013. Voltage-gated inwardly rectifying potassium channel KCNH2 (Homo sapiens), Q12809;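 active = maximum activity change below -70%; inconclusive = maximum activity change between -70% and -50%; inactive = maximum activity change above -50%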; note: % is set by controls: 0 for no effect and ±100 for the full control effect
#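 U2OS cells transduced with wild-type KCNH2 virus are loaded with FluxOr dye for 45 min, and thallium flux is measured in kinetic reads before and after stimulation buffer. Rate constants are normalized to DMSO controls.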
# CCT chaperon mod = High-Throughput Screening for Modulators of Cytosolic Chaperonin Activity; purified chaperonin ATPase assay, HTRF ADP detection, 30 min; activity change, % (no concentration beside the values), hits read low; hit rate 0.3% among 360,000; AID 651819, 2012; in the data active = activity change below about -30%; note: % is set by controls: 0 for no effect and ±100 for the full control effect
#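 We incubate TRiC, 40 or 20 nM final, with library compounds at 76 uM and 10 uM ATP for 30 min at 37 °C. ADP formed is detected with Transcreener HTRF reagents after 30 min at room temperature.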
# * hit, by the source's call; ? = inconclusive; . = no result. This is a sample that favours compounds with a hit; in the whole collection about 1.4% have one here. Unless noted, calls come from the whole dose curve.
no.	smiles	Mm-Cpn inhibitor	CCT chaperon mod	KCNH2 3.1 block
1	Cc1cccc(C)c1NC(=O)C(C)Sc1nnc(C)n1CC1CCCO1 (centres undefined)	0%	-2	14
2	CC12CN3CC(C)(CN(C1)C3c1ccccc1F)C2 (centres undefined)	1%	0	-99*
3	CC(C)C[C@@H](CN1CCCC1CN1C(=S)NC[C@@H]1Cc1ccc(O)cc1)N1C[C@H](Cc2ccccc2)N(CCc2ccccc2)C1=S (some centres undefined)	.	0	-49
4	CC(C)C[C@@H](CN1CCC[C@@H]1CN1C(=S)NC[C@@H]1Cc1ccc(O)cc1)N1C[C@H](Cc2ccccc2)N(CCc2ccccc2)C1=S	.	2	.
5	COc1ccc(CC2(CO)CCN(S(=O)(=O)c3sccc3C)CC2)cc1	-3%	0	3
6	CCCn1c(N)c(C(=O)CN(C)CC(=O)Nc2cccc(F)c2)c(=O)[nH]c1=O	2%	1	-79*
7	CCCn1c(N)c(C(=O)CN(C)CC(=O)Nc2ccccc2CC)c(=O)[nH]c1=O	0%	3	-27
8	CC(=O)Nc1ccc(NC(=O)c2ccccc2Sc2ccc([N+](=O)[O-])cc2Cl)cc1	1%	-34*	.

no.	Rango release inh	Rango complex inh	KCNH2 WT inh
1	13%	-1%	-1
2	-13%	-5%	1
3	27%	6%	-71*
4	.	.	.
5	1%	-4%	3
6	-12%	-3%	-20
7	0%	3%	7
8	-3%	0%	-9

# (more compounds)
no.	smiles	Mm-Cpn inhibitor	CCT chaperon mod	KCNH2 3.1 block
9	COC(=O)c1ccc(OCC(O)CN2CCN(C(=O)c3ccco3)CC2)cc1 (centres undefined)	-3%	-1	25
10	COC(=O)c1ccc(OCC(O)CN2CCN(C(=O)c3ccco3)CC2)c(OC)c1 (centres undefined)	0%	-1	-85*
11	CCC(C)(C)NC(=O)C(c1ccc(OC)cc1)N(C(=O)CCC(=O)Nc1cc(C)on1)c1ccc(F)cc1 (centres undefined)	0%	1	-6
12	Cc1cc2cc(CNS(=O)(=O)c3ccc4ccccc4c3)ccc2n1C	?	-2	16
13	CC(=O)Nc1ccc(S(=O)(=O)NCc2ccc3c(c2)cc(C)n3C)cc1	?	-1	-1
14	O=C(O)c1ccccc1N=Nc1c(O)[nH]c2ccc([N+](=O)[O-])cc12	-3%	0	-127*
15	Fc1ccc(OCc2nc(-c3ccncc3)n[nH]2)cc1	-1%	-3	-11
16	Cc1ccc(OCc2nc(-c3ccc(Cl)cc3)n[nH]2)cc1	-2%	-2	-10

no.	Rango release inh	Rango complex inh	KCNH2 WT inh
9	-7%	0%	1
10	-2%	3%	2
11	-1%	-1%	-6
12	-16%	-3%	-2
13	23µM*	?	-4
14	-2%	1%	-3
15	-12%	-1%	8
16	14%	3%	-74*

# (continued)
no.	smiles	Mm-Cpn inhibitor	CCT chaperon mod	KCNH2 3.1 block
17	C#CCOCCOCCOCCNc1nc(N2CCN(C(=O)CCCCCCCCCCNC(=O)[C@@H](CCC(=O)O)n3cc(CCCCCN)nn3)CC2)nc(N2CCN(C(=O)CCCCCCCCCCNC(=O)[C@H]([C@@H](C)CC)n3cc(CCCCCN)nn3)CC2)n1	45µM*	0	4
18	C#CCOCCOCCOCCNc1nc(N2CCN(C(=O)CCCCCCCCCCNC(=O)[C@H]([C@@H](C)CC)n3cc(CCCCCN)nn3)CC2)nc(N2CCN(C(=O)CCCCCCCCCCNC(=O)[C@H]([C@@H](C)CC)n3cc(CCCCN=C(N)N)nn3)CC2)n1	5%	.	.
19	C#CCOCCOCCOCCNc1nc(N2CCN(C(=O)CCCCCCCCCCNC(=O)[C@H]([C@@H](C)CC)n3cc(CCCCN=C(N)N)nn3)CC2)nc(N2CCN(C(=O)CCCCCCCCCCNC(=O)[C@H](CCCCN)n3cc(C)nn3)CC2)n1	-3%	-1	-8
20	C#CCOCCOCCOCCNc1nc(N2CCN(C(=O)CCCCCCCCCCNC(=O)[C@H]([C@@H](C)CC)n3cc(CCCCCN)nn3)CC2)nc(N2CCN(C(=O)CCCCCCCCCCNC(=O)[C@H](CCCCN)n3cc(CCCC(=O)O)nn3)CC2)n1	3%	-2	-3
21	Cc1cc(Br)cn2c(Cc3ccsc3)c(-c3ccc(Cl)cc3)nc12	.	1	.
22	COc1ccc(/C=N/NC(=S)N[C@H]2CC3CCC2C3)cc1 (some centres undefined)	1%	-67*	3
23	COc1ccc(NC(=O)c2coc3ccccc23)cc1OC	-1%	3	-5
24	COc1ccc(NC(=O)c2cc3ccccc3o2)cc1OC	-1%	-2	2

no.	Rango release inh	Rango complex inh	KCNH2 WT inh
17	-13%	1%	25
18	.	.	.
19	0%	65µM*	8
20	-4%	5%	-11
21	.	.	.
22	4%	1%	-3
23	5%	-3%	-341*
24	-6%	0%	-6

# 4 of these compounds, set out differently:
23	COc1ccc(NC(=O)c2coc3ccccc23)cc1OC
  Mm-Cpn inhibitor: -1%; CCT chaperon mod: 3; KCNH2 3.1 block: -5; Rango release inh: 5%; Rango complex inh: -3%; KCNH2 WT inh: -341*
24	COc1ccc(NC(=O)c2cc3ccccc3o2)cc1OC
  Mm-Cpn inhibitor: -1%; CCT chaperon mod: -2; KCNH2 3.1 block: 2; Rango release inh: -6%; Rango complex inh: 0%; KCNH2 WT inh: -6
21	Cc1cc(Br)cn2c(Cc3ccsc3)c(-c3ccc(Cl)cc3)nc12
  Mm-Cpn inhibitor: .; CCT chaperon mod: 1; KCNH2 3.1 block: .; Rango release inh: .; Rango complex inh: .; KCNH2 WT inh: .
22	COc1ccc(/C=N/NC(=S)N[C@H]2CC3CCC2C3)cc1 (some centres undefined)
  Mm-Cpn inhibitor: 1%; CCT chaperon mod: -67*; KCNH2 3.1 block: 3; Rango release inh: 4%; Rango complex inh: 1%; KCNH2 WT inh: -3

# (next part)
no.	smiles	Mm-Cpn inhibitor	CCT chaperon mod	KCNH2 3.1 block
25	CCCCNC(=O)C1Cc2cc(S(=O)(=O)N3CCCC3)ccc2N1C(C)=O (centres undefined)	0%	1	4
26	O=C(CS(=O)(=O)Cc1ccccc1)NCCc1ccc(F)cc1	3%	1	-78*
27	COC(=O)C(Cc1ccccc1)NC(=O)c1cccc(S(=O)(=O)N(C)C)c1 (centres undefined)	-5%	0	21
28	COC(=O)c1[nH]c2ccc(C)cc2c1NC(=O)C(C)N1CCN(C2CCCCC2)CC1 (centres undefined)	1%	-3	?
29	COC(=O)c1[nH]c2ccc(Br)cc2c1NC(=O)C(C)N1CCN(C2CCCCC2)CC1 (centres undefined)	0%	-3	-70*
30	Cc1cc(N2C(=O)C3C4CC(c5ccccc5)C(C4)C3C2=O)no1 (centres undefined)	-5%	2	-24
31	CCOC(=O)C1(Cc2cccc(OC)c2)CCN(Cc2cccn2-c2nccs2)CC1	0%	-1	-101*
32	CCOC(=O)C1(Cc2cccc(OC)c2)CCN(Cc2ccc(OC)c(OC)c2)CC1	5%	0	-70*

no.	Rango release inh	Rango complex inh	KCNH2 WT inh
25	4%	-1%	-9
26	-7%	7%	3
27	1%	4%	0
28	-13%	-1%	-44
29	?	3%	-72*
30	-2%	-2%	-2
31	11%	-1%	-83*
32	-4%	1%	18
